Results on one compound are retold here after ChEMBL document CHEMBL1148291, “Prediction of human volume of distribution values for neutral and basic drugs. 2. Extended data set and leave-class-out statistics” (J Med Chem, 2004).

A short description of the data set: clinical. The settings on record: human, in vivo.

By Vd is commonly meant a proportionality between amount in the body and measured concentration, not a real space. A high value points to wide distribution into tissue. `CC(CN1c2ccccc2Sc2ccccc21)N(C)C` (stereo unspecified) [PROMETHAZINE] had a Vd of 14 L/kg.
